According to PubChem BioAssay AID624202 (National Center for Advancing Translational Sciences (NCATS), 2012):
The list shows a part of the results, in another mix than the full data. Some structures show a salt or complex split into parts, the way the source records it. Active and inactive are the calls of the source. Calls follow the shape of the dose curve; as a rule, active = well fitted activation curve with a large enough effect; inconclusive = small, poorly fitted or top-dose-only effect; inactive = no such curve, though single readings can be large or run the other way.

Assay: qHTS Assay to Identify Small Molecule Activators of BRCA1 Expression; also: nearly all actives have a fitted effect of over 80% in size
Conditions: MCF7-BRCA1-FFLuc reporter, luminescence, 48 h, scaled: vehicle 0%, 10 µM genistein 100%; at 46.1 µM (top of the series)

SMILES | activation
O=[N+]([O-])c1cc([N+](=O)[O-])c(Nc2ccc(Cl)cc2)c([N+](=O)[O-])c1 | inactive: -64.9%
COc1ccc(C(c2nnnn2C2CCCC2)N2CCC(n3c(=O)[nH]c4ccccc43)CC2)cc1 (stereo not drawn) | inactive: -35.3%
CCCOc1ccc(C(=O)NCC2(N(C)C)CCCCC2)cc1OC | inactive: -3.51%
O=C(NCC1(N2CCOCC2)CCCCC1)c1ccccc1Br | inactive: 0.0551%
Cc1ccc(C(=O)NCC2(N(C)C)CCCCC2)o1 | inactive: 1.23%
O=C(OC1CN2CCC1CC2)c1ccc([N+](=O)[O-])cc1 (stereo not drawn) | inactive: 4.12%
O=C(NCC1(N2CCCCC2)CCCCC1)c1cncc(Br)c1 | inactive: -8.65%
COc1ccc2c(c1O)-c1c(O)c(OC)cc3c1[C@H](C2)[N+](C)(C)CC3.O=[N+]([O-])c1cc([N+](=O)[O-])c([O-])c([N+](=O)[O-])c1[O-] | inactive: 9.94%
CN1CCC(Nc2cccc(F)c2)CC1 | inactive: -16.6%
CCC(c1nnnn1C(C)(C)C)N1CCC(n2c(=O)[nH]c3ccccc32)CC1 (stereo not drawn) | inactive: 19.5%
O=C(NCC1(N2CCOCC2)CCCCC1)c1cc(F)c(F)cc1Cl | inactive: -14%
COc1cc(OC)c(C(=O)NCC2(N(C)C)CCCCC2)cc1OC | inactive: 9.37%
CCCCn1nnnc1C(c1ccnc2ccccc12)N1CCC(n2c(=O)[nH]c3ccccc32)CC1 (stereo not drawn) | inactive: 0%
CCCCn1nnnc1C(c1ccccc1OC(F)(F)F)N1CCC(n2c(=O)[nH]c3ccccc32)CC1 (stereo not drawn) | inactive: -65.3%
O=[N+]([O-])c1cc([N+](=O)[O-])c(OC2CCCCC2O)c([N+](=O)[O-])c1 (stereo not drawn) | inactive: -20.2%
CN(C)c1cccc(C(=O)NCC2(N3CCCCC3)CCCCC2)c1 | inactive: -8.61%
COc1ccc(CN(CCCl)CCCl)cc1Cl | inactive: 1.04%
COc1cc(C(=O)NCC2(N3CCCCC3)CCCCC2)ccc1OC(F)F | inactive: -28.2%
O=C(NCC1(N2CCOCC2)CCCCC1)c1cc(=O)[nH]c2ccccc12 | inactive: -5.11%
CCCCn1nnnc1C(c1cccc2ccccc12)N1CCC(n2c(=O)[nH]c3ccccc32)CC1 (stereo not drawn) | inactive: -47.5%
CN1CCN(CCOC(=O)C(O)(c2ccccc2)c2ccccc2)CC1 | inactive: -22.4%
COc1ccc(NC2CCN(C(=O)OC(C)(C)C)CC2)cc1 | inactive: 15.4%
CC(C)c1ccc(C(=O)NCC2(N3CCOCC3)CCCCC2)cc1 | inactive: 10%
O=[N+]([O-])c1cc([N+](=O)[O-])c(NCC2CCS(=O)(=O)C2)c([N+](=O)[O-])c1 (stereo not drawn) | inactive: -61.9%

SMILES | activation
O=C(NCC1(N2CCCCC2)CCCCC1)c1cccc(C(F)(F)F)c1 | inactive: -20.7%
N#CC1(Nc2ccccc2)CCN(CCc2ccccc2)CC1 | inactive: 0.66%
O=c1[nH]c2ccccc2n1C1CCN(C(c2ccccc2OC(F)(F)F)c2nnnn2C2CCCC2)CC1 (stereo not drawn) | inactive: -51.3%
CCN1CCC(Nc2ccc(Cl)cc2)CC1 | inactive: -12.4%
CSc1ccc(C(=O)NCC2(N3CCOCC3)CCCCC2)cc1 | inactive: -4.3%
CCOc1ccc(C(=O)NCC2(N3CCOCC3)CCCCC2)cc1 | inactive: -16.5%
O=C(NCC1(N2CCCCC2)CCCCC1)c1cccc([N+](=O)[O-])c1 | inactive: -10.8%
O=C(NCC1(N2CCCCC2)CCCCC1)c1ccc(OC(F)F)cc1 | inactive: -16%
CC(C)(C)n1nnnc1C(c1ccccc1OC(F)(F)F)N1CCC(n2c(=O)[nH]c3ccccc32)CC1 (stereo not drawn) | inactive: -65.3%
COc1cc(C(=O)NCC2(N(C)C)CCCCC2)ccc1OC(F)F | inactive: 3.81%
CCOC(=O)N1CCC(Nc2cccc(C)c2)CC1 | inactive: -7%
O=c1[nH]c2ccccc2n1C1CCN(C(c2cccc3ccccc23)c2nnnn2C2CCCC2)CC1 (stereo not drawn) | inactive: -48.9%
O=c1[nH]c2ccccc2n1C1CCN(C(c2ccccc2)c2nnnn2C2CCCCC2)CC1 (stereo not drawn) | inactive: -17.2%
COc1ccccc1C(=O)NCC1(N2CCOCC2)CCCCC1 | inactive: 8.96%
COc1ccc(NC2CCN(CCc3ccccc3)CC2)c(OC)c1 | inactive: -22.7%
CCOC(=O)N1CCC(Nc2ccc(F)cc2)CC1 | inactive: -2.04%
O=C(NCC1(N2CCCCC2)CCCCC1)c1ccc(F)cc1 | inactive: -16.1%
O=P1(N(CCCl)CCCl)SCCCS1 | inactive: -15.1%
CCCCn1nnnc1C(c1cc2ccccc2o1)N1CCC(n2c(=O)[nH]c3ccccc32)CC1 (stereo not drawn) | inactive: -71.5%
CCCCOc1ccc(C(=O)NCC2(N3CCOCC3)CCCCC2)cc1 | inactive: -2.89%
O=C1CCN(Cc2ccccc2)CC1 | inactive: -15.7%
CC(C)(C)n1nnnc1C(c1ccccc1)N1CCC(n2c(=O)[nH]c3ccccc32)CC1 (stereo not drawn) | inactive: -8.4%
O=C(NCC1(N2CCOCC2)CCCCC1)c1ccc(Cl)cc1 | inactive: 4.67%
CCOc1ccc(C)cc1CN(CCCl)CCCl | inactive: -0.833%

SMILES | activation
O=C1C(O)=C([N+](=O)[O-])C(=O)C(O)=C1[N+](=O)[O-] | inactive: -17.2%
COc1ccc(Cl)cc1C(=O)NCC1(N2CCOCC2)CCCCC1 | inactive: -12.5%
O=C(OC1CN2CCC1CC2)C1c2ccccc2Oc2ccccc21 (stereo not drawn) | inactive: -12.8%
O=c1[nH]c2ccccc2n1C1CCN(C(c2cc3ccccc3o2)c2nnnn2C2CCCCC2)CC1 (stereo not drawn) | inactive: -35.7%
N#CC1(Nc2ccccc2)CCN(Cc2ccccc2)CC1 | inactive: 8.34%
O=C(NCC1(N2CCCCC2)CCCCC1)c1ccc(Cl)s1 | inactive: -13.7%
CCCCn1nnnc1C(c1ccc(OC)cc1)N1CCC(n2c(=O)[nH]c3ccccc32)CC1 (stereo not drawn) | inactive: -29.4%
CCOC(=O)N1CCC(Nc2ccc(OC)cc2)CC1 | inactive: 3.29%
Cc1cc(C)cc(N(C(=O)c2ccccc2)C2CCN(C(=O)OC(C)(C)C)CC2)c1 | inactive: -37.2%
O=c1[nH]c2ccccc2n1C1CCN(C(c2ccccc2OC(F)(F)F)c2nnnn2C2CCCCC2)CC1 (stereo not drawn) | inactive: -34%
O=C(NCC1(N2CCCCC2)CCCCC1)c1ccc(Cl)nc1 | inactive: -5.99%
O=C(NCC1(N2CCOCC2)CCCCC1)c1cc2ccccc2o1 | inactive: -7.11%
Cc1cccc(NC2(C#N)CCN(Cc3ccccc3)CC2)c1 | inactive: 1.41%
CSc1ccccc1C(=O)NCC1(N2CCCCC2)CCCCC1 | inactive: -8.12%
CCC(c1nnnn1C1CCCC1)N1CCC(n2c(=O)[nH]c3ccccc32)CC1 (stereo not drawn) | inactive: -9.11%
COc1ccc(C(=O)NCC2(N3CCCCC3)CCCCC2)c(OC)c1OC | inactive: -22.5%
CC(C)(C)OC(=O)N1CCC(N(C(=O)c2ccccc2)c2ccc(F)cc2)CC1 | inactive: -8.32%
COc1ccc(C(=O)NCC2(N3CCCCC3)CCCCC2)cc1 | inactive: -1.5%
CCCCn1nnnc1C(c1cccs1)N1CCC(n2c(=O)[nH]c3ccccc32)CC1 (stereo not drawn) | inactive: -1.07%
CCCCn1nnnc1C(CC)N1CCC(n2c(=O)[nH]c3ccccc32)CC1 (stereo not drawn) | inactive: 3.54%
O=C(NCC1(N2CCCCC2)CCCCC1)c1cccs1 | inactive: -23.7%
O=C(NCC1(N2CCCCC2)CCCCC1)c1ccc(=O)[nH]c1 | inactive: -5.53%
CN1CCC(Nc2ccc(Cl)cc2)CC1 | inactive: 11.7%
COc1cc(C(=O)NCC2(N3CCOCC3)CCCCC2)cc(OC)c1OC | inactive: -0.368%

SMILES | activation
COc1cccc(C(c2nnnn2C2CCCC2)N2CCC(n3c(=O)[nH]c4ccccc43)CC2)c1OC (stereo not drawn) | inactive: -42.4%
COc1cc(OC)cc(C(=O)NCC2(N3CCOCC3)CCCCC2)c1 | inactive: -6.74%
COc1cccc(C(=O)N(c2cc(C)cc(C)c2)C2CCN(C(=O)OC(C)(C)C)CC2)c1 | inactive: -31.2%
CCC(CO)(C(=O)OC1CN2CCC1CC2)c1ccccc1 (stereo not drawn) | inactive: -22.2%
O=C(O)C1(Nc2ccccc2)CCN(Cc2ccccc2)CC1 | inactive: -5.81%
ClCCN(CCCl)c1ccc(C=C2C=CC=C2)cc1 | inactive: 0%
NN(c1ccccc1)C1CCN(CCc2ccccc2)CC1 | inactive: -0.881%
CC(C)(C)OC(=O)N1CCC(Nc2ccccc2)CC1 | inactive: 0%
CCCOc1ccc(C(=O)NCC2(N(C)C)CCCCC2)cc1 | inactive: 0.514%
O=c1[nH]c2ccccc2n1C1CCN(C(c2cc3ccccc3o2)c2nnnn2C2CCCC2)CC1 (stereo not drawn) | inactive: -55.1%
ClCCN(CCCl)c1ccccc1 | inactive: -15.1%
CN1CCC(Nc2ccc(F)c(Cl)c2)CC1 | inactive: 4.29%
CCOc1ncccc1C(=O)NCC1(N2CCOCC2)CCCCC1 | inactive: -4.75%
Cn1c(=O)[nH]cc(N(CCCl)CCCl)c1=O | inactive: -24.3%
CN(C)c1ccc(C(=O)NCC2(N3CCCCC3)CCCCC2)cc1 | inactive: -2.43%
CC(C)(C)c1ccc(C(=O)NCC2(N3CCOCC3)CCCCC2)cc1 | inactive: -6.07%
O=C(NCC1(N2CCCCC2)CCCCC1)c1ccco1 | inactive: -23%
CC(C)(C)n1nnnc1C(c1ccnc2ccccc12)N1CCC(n2c(=O)[nH]c3ccccc32)CC1 (stereo not drawn) | inactive: -26.6%
COc1ccc(C(c2nnnn2C2CCCCC2)N2CCC(n3c(=O)[nH]c4ccccc43)CC2)cc1 (stereo not drawn) | inactive: -59.8%
CCN1CCC(Nc2cccc(F)c2)CC1 | inactive: -18.8%
Cc1ccccc1NC1(C#N)CCN(Cc2ccccc2)CC1 | inactive: 0.884%
